The values below are quoted from earlier work in US10954506B2 (priority 2013, dated 2021).

For this data set the following is noted: in vivo.

Turning to “2-pyridine aldoxime methyl chloride [2-PAM]”, the “elimination t 1/2 from blood to urine” value was 1 h.
